Target: ABCC4 (Homo sapiens, UniProt O15439)

The chains behind the UniProt entries cited, without tags or fusion partners. Where a name states a change or a piece, a line headed by the entry shows the natural chain unless it says otherwise.
UniProt O15439: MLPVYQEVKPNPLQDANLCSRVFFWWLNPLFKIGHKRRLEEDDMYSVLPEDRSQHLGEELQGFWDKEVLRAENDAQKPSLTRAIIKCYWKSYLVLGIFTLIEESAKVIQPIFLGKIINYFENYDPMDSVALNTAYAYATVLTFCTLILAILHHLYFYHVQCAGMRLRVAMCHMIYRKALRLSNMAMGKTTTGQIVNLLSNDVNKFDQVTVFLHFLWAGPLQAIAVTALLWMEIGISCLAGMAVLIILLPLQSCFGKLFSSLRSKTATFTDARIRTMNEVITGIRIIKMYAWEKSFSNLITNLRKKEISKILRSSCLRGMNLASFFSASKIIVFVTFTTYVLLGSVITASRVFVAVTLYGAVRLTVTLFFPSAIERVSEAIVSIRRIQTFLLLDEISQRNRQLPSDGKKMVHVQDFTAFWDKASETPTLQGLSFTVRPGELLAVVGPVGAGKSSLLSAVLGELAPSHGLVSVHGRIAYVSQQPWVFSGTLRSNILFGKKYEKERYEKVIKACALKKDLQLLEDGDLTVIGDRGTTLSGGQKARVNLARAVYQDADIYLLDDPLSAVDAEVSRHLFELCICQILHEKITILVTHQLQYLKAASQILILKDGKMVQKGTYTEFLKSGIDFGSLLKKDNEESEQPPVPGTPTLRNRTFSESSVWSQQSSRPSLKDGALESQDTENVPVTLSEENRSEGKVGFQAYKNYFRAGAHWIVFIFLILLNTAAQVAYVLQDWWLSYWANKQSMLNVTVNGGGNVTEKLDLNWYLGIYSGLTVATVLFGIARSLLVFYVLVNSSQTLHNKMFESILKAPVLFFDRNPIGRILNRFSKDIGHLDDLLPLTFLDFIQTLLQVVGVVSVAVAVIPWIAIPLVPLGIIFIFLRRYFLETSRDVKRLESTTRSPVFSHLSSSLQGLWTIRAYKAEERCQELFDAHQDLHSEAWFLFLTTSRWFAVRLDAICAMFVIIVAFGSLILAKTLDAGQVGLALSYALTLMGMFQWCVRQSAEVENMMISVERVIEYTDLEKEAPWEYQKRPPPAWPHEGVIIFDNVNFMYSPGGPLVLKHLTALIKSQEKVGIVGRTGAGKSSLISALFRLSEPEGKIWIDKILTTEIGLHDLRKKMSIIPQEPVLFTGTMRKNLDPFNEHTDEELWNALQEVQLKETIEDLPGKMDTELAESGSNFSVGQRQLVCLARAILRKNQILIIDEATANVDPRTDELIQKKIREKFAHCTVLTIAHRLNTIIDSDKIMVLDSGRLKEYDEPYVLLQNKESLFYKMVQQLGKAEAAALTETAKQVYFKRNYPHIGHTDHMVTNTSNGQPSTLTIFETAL

`CN(C)C(=O)CCSC(SCCC(=O)O)c1cccc(/C=C/c2ccc3ccc(Cl)cc3n2)c1` (stereo not shown) [MK571] showed a Ki of 9.8 µM.

— patent US20100113370A1, “METHODS AND COMPOUNDS FOR MODULATING INFLAMMATORY PROCESSES” (priority 2007, published 2010)
